Measurements taken from paper PMC9365693, “Teixobactin kills bacteria by a two-pronged attack on the cell envelope” (Nature, 2022).

Assay: HS-AFM of teixobactin–lipid II fibrils on supported lipid bilayer
Settings: microscopy experiments
Procedure: The HS-AFM images were acquired in amplitude modulation tapping mode in liquid using a high-speed atomic force microscope (RIBM). Short cantilevers (approximately 7 μm) with a nominal spring constant of 0.15 N m^−1 were used (USC-F1.2-k0.15, NanoWorld). A minimal imaging force was applied by using a small set-point amplitude of 0.8 nm (for a 1 nm free amplitude). […] The lipid bilayer was obtained by incubating LUVs containing DOPC and lipid II (prepared as mentioned above) on top of a freshly cleaved mica for 20–30 min. […] Imaging was started on the lipid bilayer surface in recording buffer. […] Images were primarily processed using built-in scripts (RIBM) in Igor Pro (Wavemetrics) and analysed using ImageJ software. The images or videos were corrected minimally for tilt, drift and contrast. […] Image acquisition rate varies from 0.5 frames per second to 2 frames per seconds (see Fig. 2, Extended Data Figs. 5, 6, or legends of Supplementary Videos 1 and 2), and the line rate varies from 150 lines per second to 400 lines per second. […] Stated errors are standard deviation.

teixobactin
stability of the supramolecular fibrils (in words): stable for hours
